{
  "source": "patent US7838231",
  "about": "(REGENTS OF THE UNIVERSITY OF MICHIGAN, dated 2010)",
  "proteins": {"B1": {"name": "full-length human nephrocystin-5 (NPHP5), yeast two-hybrid fusion (other, not shown: small tags and cut ends)", "chain": "MKPTGTDPRILSIAAEVAKSPEQNVPVILLKLKEIINITPLGSSELKKIKQDIYCYDLIQYCLLVLSQDYSRIQGGWTTISQLTQILSHCCVGLEPGEDAEEFYNELLPSAAENFLVLGRQLQTCFINAAKAEEKDELLHFFQIVTDSLFWLLGGHVELIQNVLQSDHFLHLLQADNVQIGSAVMMMLQNILQINSGDLLRIGRKALYSILDEVIFKLFSTPSPVIRSTATKLLLLMAESHQEILILLRQSTCYKGLRRLLSKQETGTEFSQELRQLVGLLSPMVYQEVEEQKLHQAACLIQAYWKGFQTRKRLKKLPSAVIALQRSFRSKRSKMLLEINRQKEEEDLKLQLQLQRQRAMRLSRELQLSMLEIVHPGQVEKHYREMEEKSALNIQKHWRGYRERKNFHQQRQSLIEYKAAVTLQRAALKFLAKCRKKKKLFAPWRGLQELTDARRVELKKRVDDYVRRHLGSPMSDVVSRELHAQAQERLQHYFMGRALEERAQQHREALIAQISTNVEQLMKAPSLKEAEGKEPELFLSRSRPVAAKAKQAHLTTLKHIQAPWWKKLGEESGDEIDVPKDELSIELENLFIGGTKPP", "notes": "Full-length NPHP5 cDNA (598 amino acid residues) fused to a GAL4 domain; also called KIAA0036"}},
  "molecular_target": "the molecule itself",
  "test": "direct yeast two-hybrid assay, NPHP5 as bait and as prey",
  "data": [
    {"protein": "B1", "values": [
      {"measurement": "binding result", "value": "no binding"}
    ]}
  ]
}
